The values below come from ChEMBL document CHEMBL1135440, “(+)-Dinapsoline: an efficient synthesis and pharmacological profile of a novel dopamine agonist” (J Med Chem, 2002).

Chains of the proteins cited; added tags and fusions are not shown.
UniProt P18901, whole entry: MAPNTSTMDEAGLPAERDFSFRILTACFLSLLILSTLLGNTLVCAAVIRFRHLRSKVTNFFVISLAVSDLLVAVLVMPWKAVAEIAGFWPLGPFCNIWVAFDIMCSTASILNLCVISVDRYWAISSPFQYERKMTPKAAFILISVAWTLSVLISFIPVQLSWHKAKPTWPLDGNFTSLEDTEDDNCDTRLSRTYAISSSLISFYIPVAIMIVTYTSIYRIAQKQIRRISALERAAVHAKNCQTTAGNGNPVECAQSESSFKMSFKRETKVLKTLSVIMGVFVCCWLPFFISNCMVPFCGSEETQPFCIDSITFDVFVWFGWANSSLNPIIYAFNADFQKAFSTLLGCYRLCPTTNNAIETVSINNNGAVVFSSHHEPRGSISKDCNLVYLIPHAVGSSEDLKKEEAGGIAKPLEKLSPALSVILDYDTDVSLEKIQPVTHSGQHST
UniProt P61169, whole entry: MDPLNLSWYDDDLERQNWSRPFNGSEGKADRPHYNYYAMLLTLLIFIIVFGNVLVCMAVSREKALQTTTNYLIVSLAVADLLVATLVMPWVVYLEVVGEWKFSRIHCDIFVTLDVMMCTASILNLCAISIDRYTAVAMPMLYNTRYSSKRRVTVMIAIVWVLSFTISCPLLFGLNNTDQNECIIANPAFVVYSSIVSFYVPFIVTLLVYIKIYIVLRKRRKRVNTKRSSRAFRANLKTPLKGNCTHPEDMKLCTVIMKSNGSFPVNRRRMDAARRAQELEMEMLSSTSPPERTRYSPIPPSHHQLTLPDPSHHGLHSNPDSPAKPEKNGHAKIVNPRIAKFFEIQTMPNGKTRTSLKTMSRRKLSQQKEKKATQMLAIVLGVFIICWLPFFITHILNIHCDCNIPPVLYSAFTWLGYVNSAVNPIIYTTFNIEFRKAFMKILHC

One may read the IC50 as the concentration needed to halve the response being measured.

The target in assay [1] is D(1A) dopamine receptor (Rattus norvegicus, UniProt P18901). As to the kind of experiment: In vitro inhibition of [125I]SCH-23982 binding to Dopamine receptor D1 of rat striatal membrane.
The target in assay [2] is D(2) dopamine receptor (Rattus norvegicus, UniProt P61169). As to the kind of experiment: In vitro inhibition of [125I]7-OH-PIPAT binding to Dopamine receptor D2 of rat striatal membrane.

Molecules are shown by their SMILES.

Consider `Oc1ccc2c(c1O)Cc1cccc3c1[C@@H]2CNC3`, for which the half-inhibitory concentration (IC50) in assay [1] was 5.3 µM; in assay [2], 1.5 µM.

As to `Oc1ccc2c(c1O)Cc1cccc3c1[C@H]2CNC3`, the figures for the half-inhibitory concentration (IC50) in assay [1] and in assay [2] were 0.033 µM and 0.038 µM, respectively.

`Oc1ccc2c(c1O)Cc1cccc3c1C2CNC3` (racemic): the IC50 in assay [1] amounted to 0.067 µM; in assay [2], 0.056 µM.
